{"source": "patent US20070185014A1", "about": "“Methods and compositions for modulating conjunctival goblet cells” (The Schepens Eye Research Institute, Inc., priority 2006, published 2007)", "tested_on": "rat conjunctival goblet cells", "experiment": "Goblet cell proliferation, WST tetrazolium assay (Example 3A, Fluorescence Assay)", "type": "cell-based", "details": "10^−7 to 10^−8M", "from_the_text": "Conjunctival tissue from the fomical area and the nictitating membranes were removed from male Sprague Dawley rats. Tissue pieces were placed in explant culture in RPMI supplemented with fetal bovine serum (FBS). Over several days cells grew out of the explant and proliferated. Non-goblet cells, predominantly fibroblasts, were removed by scraping. Goblet cells were allowed to grow and proliferate for several days. Cells were removed from the tissue culture vessel by trypsin treatment. The number of cells was counted using a coulter counter. For measurement of proliferation 200 cells were seeded onto 96 well plates. […]\nGoblet cells from passage 1 or 2 cultured as above were used for measurement of proliferation. […] Cellular proliferation was measured using WST-1((2-(4-Iodophenyl)-3-(4-nitrophenyl)-5-(2,4-disulfophenyl)-2H-tetrazolium, sodium salt) and WST-8 (2-[2-methoxy-4- nitrophenyl]-3-[4-nitrophenyl]-5-[2,4-disulfophenyl]-2H- tetrazolium, monosodium salt), tetrazolium salts, that indicate the number of cell present based on the presence of active mitochondria. WST compound was added to each well and the amount of yellow color read using a fluorescence spectrophotometer at 465 nm. An increase in absorbance (OD) indicated an increase in cell number. Conditions were run in quintuplicate on cells from at least 3 different animals.", "data": [{"substance": "Thyroid-stimulating hormone-alpha: Thyroid-stimulating hormone-alpha", "values": [{"measurement": "effect on goblet cell proliferation", "value": "small increase in proliferation"}]}]}
